Shown are actives, neighbours in structure and some others; about 2.2% of the full set was active somewhere.
Nrf2 inh = inhibitors of Nrf2 signaling | A549 ARE-Fluc reporter, luciferase luminescence, 18-24 h | Potency, µM (series often up to 46 µM), without a hit: at the top dose activity change, negative = inhibition, usual class: inhibitors | 360,000 compounds, 2.1% hits | AID 504444; further: potency means the concentration at half of the fitted maximal effect; on the % scale 0 is the no-effect control and ±100 the full control effect; nearly all actives have a fitted effect of over 60% in size
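Two sequential reads on A549 ARE_Fluc cells exposed to compound for 18-24 h: a CellTiter-Fluor fluorescence read for viability, then a luciferase luminescence read for Nrf2/ARE activity.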
Nrf2 activator = Nrf2 pathway activation. AREc32 ARE-luciferase reporter (MCF7-derived line), luminescence, 24 h. Potency, µM (doses to about 46.1 µM), inactives show at the top dose activation, most hits filed as activators. 410,000 compounds, 0.31% hits; further: potency means the concentration at half of the fitted maximal effect; % of control where 0% means no effect; nearly all actives have a fitted effect of over 65% in size
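Luciferase luminescence (Steady-Glo, 30 min at room temperature) served as the read-out of ARE activation in AREc32 cells treated with compounds for 24 hr at 37 deg C.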
A549 viability = kills or reduces viability of A549 cells in Nrf2 counter-screen; A549 ARE-Fluc cells, CellTiter-Fluor viability, 18-24 h; Potency, µM (series often up to 46 µM), for the others: at the top dose activity change, negative = cytotoxicity, most hits filed as inhibitors; 390,000 compounds, 0.16% hits; AID 504648; further: potency means the concentration at half of the fitted maximal effect; on the % scale 0 is the no-effect control and ±100 the full control effect
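A549 ARE_Fluc cells in 5% FBS OPTI-MEM were exposed to compounds in concentration-response for 18-24 h at 37 deg C. Viability was read by CellTiter-Fluor fluorescence (Ex 405/Em 525) after 30 min, before the luciferase read.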
miR-21 reporter = raises the signal of a miR-21 reporter | HeLa miR-21 FLuc reporter, luciferase, 48 h | Potency, µM (highest dose often 38.3 µM), for inactives: at the highest dose reporter change, positive = more light | 340,000 tested, under 10 active | AID 2288; active = well fitted rising curve with a large enough effect; inconclusive = small, poorly fitted or top-dose-only effect; inactive = no such curve, though single readings can be large or run the other way;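 also: % of control where 0% means no effect; miR-21 action dims this reporter so a rising signal means less miR-21 action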
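Using DMEM plus 10% FBS, HeLa miR-21-FLuc cells are incubated with test compounds (final up to about 40uM) for 48 hours; firefly luciferase signal is then imaged following reagent-mediated lysis.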
B2AR arrestin = beta2AR (human) beta-arrestin recruitment activity | beta-arrestin recruitment to beta2AR, cell-based reporter | Potency, µM (series often up to 46.1 µM), for the others: at the top dose activation, most hits filed as activators | 330,000 compounds, 0.02% hits | AID 492947;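 further: potency means the concentration at half of the fitted maximal effect; 0% = DMSO controls and full agonism = EC100 isoproterenol or metaproterenol; nearly all actives have a fitted effect of over 65% in size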
An asterisk follows results filed as active. Unless noted, the call rests on the fitted dose curve; in most records, active means well fitted curve in the direction sought with a large enough effect; inconclusive means small, poorly fitted or top-dose-only effect, or another doubt; inactive means no such curve, though single readings can be large; an effect the other way counts as inactive or inconclusive.

Cn1c2cc(S(C)=O)sc2c2cnn(Cc3cccc(O)c3)c(=O)c21 (stereo unspecified) was read as Nrf2 inh 0% and A549 viability 19%.
Screening CN(c1ccccc1)S(=O)(=O)c1ccc(NC(=O)c2ccc(-c3ccccc3)cc2)cc1 returned Nrf2 inh 15µM*, Nrf2 activator 0%, A549 viability -21%, miR-21 reporter 22% and B2AR arrestin 0%.
CN(c1cccc(NC(=O)c2ccc(N(C)S(=O)(=O)c3ccccc3)cc2)c1)S(C)(=O)=O was read as Nrf2 inh 15µM*, Nrf2 activator 0%, A549 viability -15%, miR-21 reporter inconclusive and B2AR arrestin 0%.
Screening CN(c1ccccc1)S(=O)(=O)c1ccc(C(=O)Nc2nnc(-c3ccc(F)cc3)o2)cc1 returned Nrf2 inh 23µM*, Nrf2 activator 0%, A549 viability -15%, miR-21 reporter -5% and B2AR arrestin -1%.
`CC(=O)Nc1ccc(NC(=O)c2ccc(N(C)S(=O)(=O)c3ccc(C)cc3)cc2)cc1` gave Nrf2 inh 4%, Nrf2 activator 0%, A549 viability 4%, miR-21 reporter -7% and B2AR arrestin 0%.
Screening Cc1nc2cc(NC(=O)c3ccc(S(=O)(=O)N(C)c4ccccc4)cc3)ccc2o1 returned Nrf2 inh 8.2µM*, Nrf2 activator 3%, A549 viability -19%, miR-21 reporter inconclusive and B2AR arrestin 0%.
Screening CC(=O)CSc1ncnc2sc3c(c12)CCC(C)C3 (stereo unspecified) returned Nrf2 inh 16%, Nrf2 activator 6%, A549 viability 11%, miR-21 reporter -49% and B2AR arrestin 0%.
Screening Cc1sc2ncnc(SCC(=O)c3cccs3)c2c1C returned Nrf2 inh inconclusive, Nrf2 activator 14µM*, A549 viability -15%, miR-21 reporter -50% and B2AR arrestin 0%.
Screening CCCN(CC1CC1)C(=O)CSc1ncnc2sc(C)c(C)c12 returned Nrf2 inh inconclusive, Nrf2 activator 1%, A549 viability -1%, miR-21 reporter 9% and B2AR arrestin 0%.
CCN(C(=O)CSc1ncnc2sc(C)c(C)c12)C1CCS(=O)(=O)C1 (stereo unspecified) was read as Nrf2 inh 13µM*, Nrf2 activator 0%, A549 viability -1%, miR-21 reporter -2% and B2AR arrestin 0%.

As a short view, two of the compounds above:
Screening CCCN(CC1CC1)C(=O)CSc1ncnc2sc(C)c(C)c12 returned Nrf2 inh inconclusive, Nrf2 activator 1%, A549 viability -1%, miR-21 reporter 9% and B2AR arrestin 0%.
CCN(C(=O)CSc1ncnc2sc(C)c(C)c12)C1CCS(=O)(=O)C1 (stereo unspecified) was read as Nrf2 inh 13µM*, Nrf2 activator 0%, A549 viability -1%, miR-21 reporter -2% and B2AR arrestin 0%.

The listing continues.
Screening CC1CCc2c(sc3ncnc(SCC(=O)N(C)C4CCS(=O)(=O)C4)c23)C1 (stereo unspecified) returned Nrf2 inh 16µM*, Nrf2 activator 0%, A549 viability -4% and B2AR arrestin 0%.
Screening CCc1noc(-c2ccc(NC(C)c3ccccc3)c([N+](=O)[O-])c2)n1 (stereo unspecified) returned Nrf2 inh -1%, Nrf2 activator 4%, A549 viability 6% and miR-21 reporter -3%.
COc1ccc(C(=O)Nc2nnc(SCc3cc(=O)n4cc(Cl)ccc4n3)s2)cc1 was read as Nrf2 activator 0%, A549 viability -1% and miR-21 reporter -3%.
For COc1cc(/C=N\NC(=O)c2ccc(-c3ccccc3)cc2)cc(OC)c1OC(C)=O the results were Nrf2 inh 13µM*, Nrf2 activator 5%, A549 viability 2%, miR-21 reporter 4% and B2AR arrestin 0%.
CCN(CC(=O)Nc1c(F)cccc1F)C(=O)c1ccc(N2CCCCC2)c([N+](=O)[O-])c1 was read as Nrf2 inh 16µM*, Nrf2 activator 0%, A549 viability -12%, miR-21 reporter -5% and B2AR arrestin 0%.
Screening CS(=O)(=O)c1ccc(C(=O)OCC(=O)N2CCc3ccccc32)cc1[N+](=O)[O-] returned Nrf2 inh -2% and A549 viability -5%.
`COC(=O)C1=C[C@@H](C(=O)OC)[C@@H]2C3=C(C(=O)[C@@]2(C)NC(=O)c2ccccc2)[C@H](C)[C@@H]2C(=O)N(c4ccccc4)C(=O)[C@@H]2[C@@H]3C1` gave Nrf2 inh 17% and A549 viability 5%.
Screening CCCCCCCCCCn1ccc(=N)cc1 returned Nrf2 inh 15µM*, Nrf2 activator 2%, A549 viability -28%, miR-21 reporter inconclusive and B2AR arrestin 0%.
Screening CCCCCCCCn1ccc(=N)cc1 returned Nrf2 inh -23%, Nrf2 activator -2%, A549 viability 0%, miR-21 reporter inconclusive and B2AR arrestin -1%.
CC(C)c1ccc(NC(=O)CCn2c(=O)c3cccn3c3ccccc32)cc1 was read as Nrf2 inh 10µM*, Nrf2 activator 4%, A549 viability -12% and miR-21 reporter 13%.

3 structures from above, sorted by length of the SMILES, lowest first.
Screening CCCCCCCCCCn1ccc(=N)cc1 returned Nrf2 inh 15µM*, Nrf2 activator 2%, A549 viability -28%, miR-21 reporter inconclusive and B2AR arrestin 0%.
Screening CCc1noc(-c2ccc(NC(C)c3ccccc3)c([N+](=O)[O-])c2)n1 (stereo unspecified) returned Nrf2 inh -1%, Nrf2 activator 4%, A549 viability 6% and miR-21 reporter -3%.
CCN(CC(=O)Nc1c(F)cccc1F)C(=O)c1ccc(N2CCCCC2)c([N+](=O)[O-])c1 was read as Nrf2 inh 16µM*, Nrf2 activator 0%, A549 viability -12%, miR-21 reporter -5% and B2AR arrestin 0%.

More structures.
Cc1nc([N+](=O)[O-])c(Br)n1Cc1ccc(Cl)c(Cl)c1 was read as Nrf2 inh 16µM*, Nrf2 activator -3%, A549 viability inconclusive, miR-21 reporter inconclusive and B2AR arrestin 0%.
Screening Cc1nc([N+](=O)[O-])c(Br)n1CC(=O)c1ccc(Cl)cc1 returned Nrf2 activator inconclusive, A549 viability -22%, miR-21 reporter inconclusive and B2AR arrestin 0%.
`Cc1ccc(C(=O)NCC(=O)OCC(=O)c2cccc3ccccc23)cc1` gave Nrf2 inh 3% and A549 viability 15%.
`CN(C)S(=O)(=O)c1cccc(NC(=O)c2cccc(NS(=O)(=O)c3ccccc3)c2)c1` gave Nrf2 inh 15µM*, Nrf2 activator -1%, A549 viability inconclusive, miR-21 reporter 26% and B2AR arrestin 0%.
Screening Cc1ccc(NC(=O)CN(C)S(=O)(=O)c2cccc3nsnc23)cc1C returned Nrf2 inh -3%, Nrf2 activator 0%, A549 viability 2%, miR-21 reporter -4% and B2AR arrestin 0%.
`CN(C)S(=O)(=O)c1cccc(C(=O)Nc2ccc(C(=O)Nc3cccc(S(N)(=O)=O)c3)cc2)c1` gave Nrf2 inh -6%, Nrf2 activator 2%, A549 viability 3% and B2AR arrestin -1%.
`Cc1cc(C)n(-c2ccc(C(=O)Nc3ccc(C)c(S(=O)(=O)N(C)C)c3)cc2)n1` gave Nrf2 inh 18µM*, Nrf2 activator 2%, A549 viability inconclusive, miR-21 reporter 24% and B2AR arrestin 0%.
Screening Cc1cc(C)n(-c2ccc(C(=O)Nc3cccc(S(=O)(=O)N(C)C)c3)cc2)n1 returned Nrf2 inh 18µM*, Nrf2 activator -1%, A549 viability -15%, miR-21 reporter 25% and B2AR arrestin 7%.
Cc1ccc(NC(=O)CN(C)S(=O)(=O)c2cccc3nsnc23)cc1Cl was read as Nrf2 inh 18µM*, Nrf2 activator 2%, A549 viability 2%, miR-21 reporter 4% and B2AR arrestin 0%.

High-throughput results as filed in PubChem BioAssay.
